Assay results taken from PMC4933336, “Examining the Effects of Sodium Ions on the Binding of Antagonists to Dopamine D2 and D3 Receptors” (PLoS ONE, 2016).

The chains behind the UniProt entries cited, without tags or fusion partners.
UniProt P35462, whole entry D75A: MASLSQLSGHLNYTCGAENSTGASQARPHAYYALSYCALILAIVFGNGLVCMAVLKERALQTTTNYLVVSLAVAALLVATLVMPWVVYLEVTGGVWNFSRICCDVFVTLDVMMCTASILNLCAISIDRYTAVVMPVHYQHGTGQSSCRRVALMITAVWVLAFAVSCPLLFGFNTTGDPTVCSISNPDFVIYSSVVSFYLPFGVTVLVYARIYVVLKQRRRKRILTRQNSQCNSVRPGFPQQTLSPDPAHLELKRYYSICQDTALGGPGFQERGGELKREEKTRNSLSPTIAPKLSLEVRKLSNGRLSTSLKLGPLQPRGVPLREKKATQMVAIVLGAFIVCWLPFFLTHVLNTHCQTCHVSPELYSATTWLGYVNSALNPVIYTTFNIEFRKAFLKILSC
UniProt P35462, whole entry: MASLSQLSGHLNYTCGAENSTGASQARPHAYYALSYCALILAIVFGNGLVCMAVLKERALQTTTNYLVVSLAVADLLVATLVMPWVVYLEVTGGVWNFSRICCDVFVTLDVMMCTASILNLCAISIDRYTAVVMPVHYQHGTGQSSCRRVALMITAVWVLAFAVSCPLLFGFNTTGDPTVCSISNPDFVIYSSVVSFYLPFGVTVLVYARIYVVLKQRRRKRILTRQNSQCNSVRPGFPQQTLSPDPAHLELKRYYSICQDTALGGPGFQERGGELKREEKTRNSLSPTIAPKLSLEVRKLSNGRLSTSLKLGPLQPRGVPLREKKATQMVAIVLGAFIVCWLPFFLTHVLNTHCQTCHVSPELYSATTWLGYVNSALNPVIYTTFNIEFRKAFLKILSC

Legend:
[1] = target: T1, dopamine D3 receptor (D3), c-myc tagged, U-2 OS (Homo sapiens, UniProt P35462, D75A); experiment: [3H]spiperone competition binding, U-2 OS membranes
T1 construct: gene DRD3; full-length, N-terminal c-myc tag; membranes of U-2 OS cells (BacMam)

[2] = target: T2, dopamine D3 receptor (D3), c-myc tagged, U-2 OS (Homo sapiens, UniProt P35462); experiment: as above
T2 construct: gene DRD3; full-length, N-terminal c-myc tag; membranes of U-2 OS cells (BacMam)

CCN1CCC[C@H]1CNC(=O)c1cc(S(N)(=O)=O)ccc1OC [sulpiride]
IC50 [1]: 2 µM
IC50 [2]: 0.182 µM
